Measurements published in paper PMC6702104 (Bioorganic & medicinal chemistry letters, 2019).

Settings: pH 5

Structure (SMILES): Cn1c(C(=O)NC2(c3ccc(C(=O)O)c(F)c3)COC2)cc2c(Cl)c(Cl)ccc21 [Compound 7]
- PAMPA: ND 152 (pH 5.0) nm s^−1
